# Tests used:
# [1] = mice, rats and monkeys; cited from earlier work
# [2] = Pharmacokinetic study of bolus hIFN-β1a protein, serum hIFN-β ELISA
Substance,half-life (t1/2) [1],"amount of hIFN-β1a remaining in serum at 6 hours, i.m. vs i.v. ([2]; 6 hours)",decrease of serum level from maximum by 6 hours ([2]; i.m. injection),time of maximum hIFN-β1a serum level post-injection ([2]; i.m. injection) [h],"difference in serum hIFN-β1a level between high and low dose ([2]; i.v. and i.m., 250 ng vs 25 ng) [fold]","time by which serum hIFN-β1a levels were near the limit of detection (LOD=12.5 pg/ml) ([2]; i.v. injection, 25 ng or 250 ng) [h]"
hIFN-β1a: recombinant human interferon-β1a protein,approximately 1 hours,higher with the i.m. injection compared to the i.v. injection,approximately 10 fold,2,10,≤ 6
PEGylated form of IFN-β1a: IFN-β1a with an attached 20-kDa polymer of polyethylene glycol [reference compound],10 h,–,–,–,–,–

# Source: patent US20070179113A1, “GM-CSF gene therapy for Crohn's disease using an improved regulated expression system” (Schering Aktiengesellachaft, priority 2005, published 2007)
